Laboratory results published in US12378521B2, “Method for enhancing production of genetically engineered autologous T cells” (AMGEN INC., priority 2020, dated 2025).

Key:
[1] = tested on: T cells; assay: T cell differentiation into memory subsets, IL-2 withdrawal; format: cell-based, human
[2] = tested on: T2 cells; assay: Specific target cell lysis of peptide pulsed T2 cells (Example 8); format: cell-based; conditions: IL-2 withdrawal Day 5 and Day 6
[3] = tested on: T2 cells; assay: Unspecific cell lysis (target irrelevant killing) of T2 cells (Example 8); format: cell-based; conditions: IL-2 withdrawal Day 5 and Day 6; E:T 1:5, 1:1, 5:1; 24 hours
[4] = tested on: T cells; assay: T cell purity by flow cytometry, IL-2 withdrawal; format: cell-based, human; conditions: IL-2 withdrawal at Day 4, 5 or 6
[5] = tested on: apheresed donor cells; assay: Cell growth and viability, IL-2 withdrawal (Example 8); format: cell-based, human; conditions: IL-2 withdrawal at Day 4
[6] = tested on: apheresed donor cells; assay: T cell expansion in XURI W25 bioreactor, media with IL-2 or IL7/IL-21/TWS119: growth and viability; format: cell-based, human; conditions: 10 days
[7] = tested on: T cells; assay: Engineered TCR surface expression by dextramer staining, IL-2 withdrawal; format: cell-based, human; conditions: IL-2 withdrawal at Day 4
[8] = tested on: T cells; assay: Activation profile by CD25 surface expression, IL-2 withdrawal (Example 8); format: cell-based, human

“IL-2: soluble cytokine, 300 IU/ml in OpTmizer complete media” was tested, and the T cell differentiation ([1]; IL-2 withdrawal at Day 4 and Day 6) was “more advanced T cell differentiation”, the T cell differentiation ([1]; IL-2 withdrawal at Day 5) was “maintain T cell differentiation at the same level as the Control” and the “percentage of specific target cells lysis” value [2] was “did not affect”. For the same substance, the “reduction of percentage of unspecific killing (target irrelevant killing) compared to Control” value [3] was about 40%, the “CD3+ cell purity compared to Control” value [4] was “no impact on CD3+ cell purity” and the Cell expansion [5] was “inhibited cell expansion significantly”. The T cells yielded [6] was 16 billion T cells, the TCR surface expression [7] was “reduced TCR surface expression” and the “CD25 expression upon harvest” value ([8]; Control continuously supplemented with IL-2 300 IU/ml) was 50-80%. For the same substance, the “CD25 expression upon harvest” value ([8]; IL-2 withdrawal at Day 4, Day 5 and Day 6) was under 10%.
